Source: patent US11471428B2, “Method and pharmaceutical composition for treating depression” (ZHEJIANG UNIVERSITY, priority 2017, dated 2022)

Legend:
[1] = tested on: spontaneously bursting LHb neurons; assay: Spontaneous bursts of LHb neurons in brain slices, bath application; type: cell-based
[2] = tested on: lateral habenular neurons; assay: Hyperpolarization-triggered rebound bursts in LHb brain slices; type: cell-based
[3] = mibefradil 10 μM bath application

| SMILES | spontaneous bursts ([1]; ketamine 100 μM bath applied) | probability of neuron hyperpolarization-induced burst ([2]; ketamine 100 μM) | amplitude of plateau potential of spontaneous bursts [1, 3] | bursting probability of spontaneous bursts [1, 3] | probability of neuron hyperpolarization-induced burst ([2]; mibefradil 10 μM) |
| --- | --- | --- | --- | --- | --- |
| CNC1(c2ccccc2Cl)CCCCC1=O (centres unmarked) [ketamine] | almost completely eliminated spontaneous bursts | 0.19 | – | – | – |
| COCC(=O)O[C@]1(CCN(C)CCCc2nc3ccccc3[nH]2)CCc2cc(F)ccc2[C@@H]1C(C)C [mibefradil] | – | – | reduced the amplitude of plateau potential | effectively decreased the bursting probability | 0.05 |
